The values that follow are results of earlier work, collected in PMC7178819, “6,7-Dimethoxy-2-phenethyl-1,2,3,4-tetrahydroisoquinoline amides and corresponding ester isosteres as multidrug resistance reversers” (Journal of Enzyme Inhibition and Medicinal Chemistry, 2020).

Sequences of proteins named here, by UniProt entry; tags and fusion partners are left off.
UniProt P08183, whole entry: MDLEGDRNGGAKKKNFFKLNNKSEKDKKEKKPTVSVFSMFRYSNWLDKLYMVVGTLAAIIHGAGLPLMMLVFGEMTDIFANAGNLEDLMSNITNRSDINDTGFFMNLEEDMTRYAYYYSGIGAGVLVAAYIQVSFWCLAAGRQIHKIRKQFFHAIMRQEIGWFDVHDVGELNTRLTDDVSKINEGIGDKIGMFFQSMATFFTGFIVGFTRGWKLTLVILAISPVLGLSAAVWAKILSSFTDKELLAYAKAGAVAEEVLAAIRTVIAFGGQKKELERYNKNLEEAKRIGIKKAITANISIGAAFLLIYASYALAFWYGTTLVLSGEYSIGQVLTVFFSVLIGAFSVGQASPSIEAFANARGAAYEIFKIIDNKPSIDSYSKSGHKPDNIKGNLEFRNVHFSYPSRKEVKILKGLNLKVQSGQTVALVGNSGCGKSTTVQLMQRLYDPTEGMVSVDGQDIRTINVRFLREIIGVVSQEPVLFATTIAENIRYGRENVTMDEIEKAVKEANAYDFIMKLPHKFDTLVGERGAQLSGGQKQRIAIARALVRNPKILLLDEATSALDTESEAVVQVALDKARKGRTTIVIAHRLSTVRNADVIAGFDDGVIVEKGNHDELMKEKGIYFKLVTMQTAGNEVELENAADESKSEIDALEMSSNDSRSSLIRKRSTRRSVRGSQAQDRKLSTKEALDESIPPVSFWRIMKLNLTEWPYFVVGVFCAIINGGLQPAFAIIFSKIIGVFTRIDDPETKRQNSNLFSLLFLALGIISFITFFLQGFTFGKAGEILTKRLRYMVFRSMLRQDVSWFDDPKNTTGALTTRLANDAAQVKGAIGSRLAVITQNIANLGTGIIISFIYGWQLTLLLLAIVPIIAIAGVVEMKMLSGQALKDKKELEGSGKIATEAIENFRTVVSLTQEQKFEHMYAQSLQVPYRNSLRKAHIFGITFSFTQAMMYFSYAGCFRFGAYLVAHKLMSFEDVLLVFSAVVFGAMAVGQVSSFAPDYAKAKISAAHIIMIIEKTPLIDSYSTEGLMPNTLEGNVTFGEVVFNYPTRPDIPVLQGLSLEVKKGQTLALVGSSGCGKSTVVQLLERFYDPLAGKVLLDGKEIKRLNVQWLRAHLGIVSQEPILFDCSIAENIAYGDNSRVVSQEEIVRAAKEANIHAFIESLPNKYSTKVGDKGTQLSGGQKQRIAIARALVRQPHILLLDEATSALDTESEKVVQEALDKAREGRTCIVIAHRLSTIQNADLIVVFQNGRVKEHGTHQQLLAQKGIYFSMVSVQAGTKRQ
UniProt Q9UNQ0, whole entry: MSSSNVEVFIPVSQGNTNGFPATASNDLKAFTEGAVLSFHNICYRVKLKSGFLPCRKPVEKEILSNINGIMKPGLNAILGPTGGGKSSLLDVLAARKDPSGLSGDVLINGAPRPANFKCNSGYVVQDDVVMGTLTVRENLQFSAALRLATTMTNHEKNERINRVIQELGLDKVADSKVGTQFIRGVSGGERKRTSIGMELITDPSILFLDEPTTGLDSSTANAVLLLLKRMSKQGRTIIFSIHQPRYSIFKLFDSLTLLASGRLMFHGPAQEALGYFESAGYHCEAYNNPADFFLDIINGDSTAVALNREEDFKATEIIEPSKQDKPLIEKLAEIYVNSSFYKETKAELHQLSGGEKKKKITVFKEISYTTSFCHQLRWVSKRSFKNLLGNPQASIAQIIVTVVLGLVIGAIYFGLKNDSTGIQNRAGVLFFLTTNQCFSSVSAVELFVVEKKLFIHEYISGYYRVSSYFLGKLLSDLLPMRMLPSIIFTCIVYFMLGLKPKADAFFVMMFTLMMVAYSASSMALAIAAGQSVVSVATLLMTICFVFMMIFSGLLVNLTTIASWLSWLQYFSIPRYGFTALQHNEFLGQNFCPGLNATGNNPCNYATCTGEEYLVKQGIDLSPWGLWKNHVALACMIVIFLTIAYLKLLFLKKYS

SMILES strings stand for the structures.

Data set [1] has as its target T1, P-gp (Homo sapiens, UniProt P08183). The settings on record: read-out: (EC50) P-gp; Calcein-AM, MDCK-MDR1 cells; cited from earlier work.
Data set [2] has as its target BCRP (Homo sapiens, UniProt Q9UNQ0). The note with it: read-out: (EC50) BCRP; Hoechst 33342, MDCK-BCRP cells; NA: not active; cited from earlier work.
The target in data set [3] is T1, P-gp. The note with it: MDCK-MDR1 cells; Yes/No; cited from earlier work.
Data set [4] concerns Caco-2 cell monolayer. The settings on record: Caco-2 monolayer, BA/AB ratio; cited from earlier work.
For data set [5] the following is noted: human plasma; cited from earlier work.

Take `COc1cc2c(cc1OC)CN(CCc1ccc(OC(=O)c3cc(OC)c(OC)c(OC)c3)cc1)CC2`: the EC50 in data set [1] is 0.93 µM; in data set [2], 17 µM. In addition, in data set [3], the ATP cell depletion entry is recorded as “No”. In addition, the Papp (BA/AB) in data set [4] is 5.5. Also, in data set [5], the t1/2 is at least 4 h.

With `COc1cc2c(cc1OC)CN(CCc1ccc(NC(=O)c3cc(OC)c(OC)c(OC)c3)cc1)CC2`, the EC50 in data set [1] was 1.04 µM. Further, in data set [3], the ATP cell depletion result is on record as “No”. Also, in data set [4], the Papp (BA/AB) is 5.1. Also, the t1/2 in data set [5] was at least 4 h.
